Measured affinities in a library of Ab-95 light chain variants

Reference: Engelhart et al. 2022, doi:10.1038/s41597-022-01779-4. File: FLAb, binding data.

All variants were tested on one target, the spike HR2 peptide PDVDLGDISGINAS (SARS-CoV-2).

Each scFv is VH, a 15-residue (Gly4Ser)3 linker, VL, as in the parent Ab-95, and differs from it in the CDRs of the light chain only.
VH: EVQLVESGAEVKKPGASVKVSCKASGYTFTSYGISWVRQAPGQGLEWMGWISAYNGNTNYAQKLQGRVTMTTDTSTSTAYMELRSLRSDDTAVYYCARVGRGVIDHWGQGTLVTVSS
VL: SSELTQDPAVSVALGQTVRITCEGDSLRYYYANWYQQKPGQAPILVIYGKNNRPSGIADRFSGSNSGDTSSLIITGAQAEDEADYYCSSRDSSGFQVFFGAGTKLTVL

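The parent was found by panning a naive human phage display library on the peptide. AAYL52 was designed without a model: most single CDR substitutions and a random sample of double and triple ones. Affinity was read by AlphaSeq, a pooled yeast mating assay with surface-displayed partners. Binding brings cells together so that they mate, and sequencing counts the barcode pairs among the diploids. Each replicate has its own calibration line, from reference interactions of the BCL2 family. The assay was run in three technical replicates.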

The parent's light chain CDRs are EGDSLRYYYAN, GKNNRPS, SSRDSSGFQVF; each variant's own CDRs replace them letter for letter.
Numbers give log10(Kd / nM), so 0 is 1 nM and 3 is 1 µM. Smaller is tighter.
Replicates are averaged; those with no signal do not enter the mean.
"nd" marks a missing value. The strain was present, yet no cells mated with the target were sequenced in that replicate, which points to weak or no binding.
For reference, the parent read 2.31 as the reference entry and 2.25 as a member of this library.
Three control strains display no target. For library AAYL52, 28% of the pairings with them gave a signal, with a median of 3.91 and one signal in twenty below 2.90, so weak values seen in few replicates may be background. The control count says in how many pairings with the empty strains this scFv gave a signal, with their mean in brackets.

CDR-L1	CDR-L2	CDR-L3	log10 Kd (nM) by replicate	mean, log10 nM	signal with controls
EGDSLRYYYAN	GRNNRPS	SSRNSSGFQVF	2.95 / 2.39 / 2.96	2.77	3/9 (3.41)
ELDSLRIYYAN	GKNMRPS	SSRDSSGFQVF	nd / nd / nd	nd	1/9 (3.51)
EGDSLRYYYAN	GKIPRPS	SSRDASGFQVF	nd / nd / nd	nd	3/9 (3.09)
EGDSLRYYYAN	GKNNAPS	SSRDSDGFQGF	3.39 / 3.57 / 3.12	3.36	2/9 (4.58)
EGDSLRTYYAN	GKNNRPS	DSNDSSGFQVF	2.90 / nd / nd	2.90	4/9 (4.23)
EGDSLRYYYAF	GKYNRPS	SSRDSSGFQKF	nd / nd / nd	nd	0/9
EGDELRNYYAN	GKNNRPA	SSRDSSGFQVF	2.91 / nd / 3.07	2.99	0/9
MGDSLRYYYAN	GNNNRPS	SRRDSSGFQVF	3.79 / 3.31 / 3.16	3.42	4/9 (3.72)
EIDSLRYCYAN	QKNNRPS	SSRDSSGFQVF	nd / nd / nd	nd	1/9 (3.09)
EGDSLRYYYAN	GHNNGVS	SSRDSSGFQVF	4.44 / 4.81 / 4.19	4.48	3/9 (4.19)
EEESLRYYYAN	GKNNRPS	SSRDPSGFQVF	nd / nd / nd	nd	4/9 (3.49)
EGDSLRYYYAN	GKNNRPS	SSRKSSGFQVF	2.66 / 3.19 / 2.45	2.77	3/9 (4.11)
ETDNLRYYYAN	GKNNRPS	SSRDSSGYQVF	3.23 / 3.27 / 2.34	2.95	4/9 (4.74)
EGDSLRYYYAN	GKNNRPS	SERGISGFQVF	2.37 / 2.23 / 2.45	2.35	1/9 (4.45)
EGVSLRYYYAN	GKNNRPS	SSRDSSGFQVF	2.35 / 2.25 / 1.52	2.04	5/9 (3.97)
EGDGLRHYYAN	GKTNRPS	SSRDSSGFQVF	3.13 / 2.95 / 3.13	3.07	3/9 (4.04)
SGDSLRYYYAN	GKNNHPS	SSCDSSGFQVF	3.02 / 3.19 / nd	3.10	1/9 (4.19)
EGMILRYYYLN	GKNNRPS	SSRDSSGFQVF	nd / nd / nd	nd	0/9
EQDSLRYYYAN	GKNGYPS	SSRDSSGFQVF	3.72 / 5.27 / nd	4.49	5/9 (4.82)
EGDNLRYYYAN	GKNNRPS	SHRDSSKFQVF	3.20 / nd / 2.80	3.00	2/9 (4.58)
EGDSLRYYYAN	GKNNRPS	SMRDSSGFHVF	2.69 / 3.15 / 2.86	2.90	2/9 (4.07)
EFDSLRYYYAP	MKNNRPS	SSRDSSGFQVF	nd / 5.44 / nd	5.44	2/9 (4.27)
VGDSLRYYYAN	GKNNRPS	SSTDSSGFQVI	4.14 / 3.43 / 2.51	3.36	0/9
EGYSLRMYYAN	GKNNRLS	SSRDSSGFQVF	3.98 / 4.36 / 3.36	3.90	7/9 (3.86)
EGDSLNYYYAN	WKNNRPS	SSRDSSFFQVF	4.57 / 2.92 / nd	3.75	3/9 (3.98)
EGDSLRYLYAN	GKNNRES	CSRDSSGFQVF	3.91 / nd / nd	3.91	0/9
EGDSLRYYYAN	GKNNPPS	VSRDSSGFAVF	3.04 / nd / 3.86	3.45	3/9 (4.38)
AGDSLRRYYAN	GKNSRPS	SSRDSSGFQVF	2.83 / 2.45 / 2.11	2.46	2/9 (3.41)
EGDSLRYYYAF	GKNNRPS	WQRDSSGFQVF	nd / nd / nd	nd	5/9 (4.03)
EKDSLRYYYRN	MKNNRPS	SSRDSSGFQVF	nd / nd / nd	nd	0/9
EGDSLRYYRAN	GKNNVPS	VSRDSSGFQVF	3.28 / nd / nd	3.28	2/9 (3.59)
EGDSQRYYYAN	GKNDTPS	SSRDSSGFQVF	4.02 / 3.64 / nd	3.83	4/9 (3.69)
EGDSLRYYTAN	GKANRPS	YSRDSSGFQVF	3.31 / 4.08 / 3.86	3.75	0/9

2 of these entries, quoted again:

CDR-L1	CDR-L2	CDR-L3	log10 Kd (nM) by replicate	mean, log10 nM	signal with controls
ETDNLRYYYAN	GKNNRPS	SSRDSSGYQVF	3.23 / 3.27 / 2.34	2.95	4/9 (4.74)
VGDSLRYYYAN	GKNNRPS	SSTDSSGFQVI	4.14 / 3.43 / 2.51	3.36	0/9